The test system of this test is Mus musculus. Briefly: Antinociceptive activity in sc dosed mouse by warm water tail-flick test relative to control.

The compound `CN(C(=O)Cc1ccc(Cl)c(Cl)c1)C1CCCCC1N1CCCC1` (stereo unspecified) had an MPE of 25%.

For the origin of these results see ChEMBL document CHEMBL3400112, “Design, syntheses, and pharmacological characterization of 17-cyclopropylmethyl-3,14β-dihydroxy-4,5α-epoxy-6α-(isoquinoline-3'-carboxamido)morphinan analogues as opioid receptor ligands” (Bioorg Med Chem, 2015).
